Data: ChEMBL document CHEMBL3351435, “New pyrrole derivatives with potent tubulin polymerization inhibiting activity as anticancer agents including hedgehog-dependent cancer” (J Med Chem, 2014)

Tested on: K562
Assay: Cytotoxicity against human K562 cells assessed as growth inhibition after 96 hrs by Giemsa staining-based light microscopy
Assay type: functional, cell-based
Details: K562, 96 h

COc1cc(C(=O)c2ccn(-c3cccc(NS(C)(=O)=O)c3)c2)cc(OC)c1OC
IC50: 19 nM
